Measurements reported in US9034857B2 (Health Research, Inc., priority 2010, dated 2015).

Test system: growth arrest of stationary phase cells in G0/G1

Structure (SMILES) | G0/G1 arrest (Table 2 summary, stationary phase) | fraction of cells with visible buds (wild type cells, day 3 of medium depletion) | frequency of G0/G1 arrest in stationary phase (visible buds)
N[C@@H](CCC(=O)N[C@@H](CS)C(=O)NCC(=O)O)C(=O)O [GSH, glutathione] | ↑ | fewer visible buds | 
CC(=O)N[C@@H](CS)C(=O)O [N-acetylcysteine] |  |  | absent
